Molecular target: O-acyltransferase (Oryctolagus cuniculus, UniProt G1SFD9)
Experiment: Acyl coenzyme A:cholesterol acyltransferase 1 inhibition in vitro measured in rabbit intestinal microsomes
Parameters: species or system Intestine
How it was run: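 ACAT activity in intestinal microsomes from cholesterol-fed rabbits, measured by incubation with 14C-labeled oleoyl-CoA; IC50 is the micromolar concentration giving 50% inhibition of enzyme activity.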

The chains behind the UniProt entries cited, without tags or fusion partners. Residues count along the entry.
UniProt G1SFD9, 1-524: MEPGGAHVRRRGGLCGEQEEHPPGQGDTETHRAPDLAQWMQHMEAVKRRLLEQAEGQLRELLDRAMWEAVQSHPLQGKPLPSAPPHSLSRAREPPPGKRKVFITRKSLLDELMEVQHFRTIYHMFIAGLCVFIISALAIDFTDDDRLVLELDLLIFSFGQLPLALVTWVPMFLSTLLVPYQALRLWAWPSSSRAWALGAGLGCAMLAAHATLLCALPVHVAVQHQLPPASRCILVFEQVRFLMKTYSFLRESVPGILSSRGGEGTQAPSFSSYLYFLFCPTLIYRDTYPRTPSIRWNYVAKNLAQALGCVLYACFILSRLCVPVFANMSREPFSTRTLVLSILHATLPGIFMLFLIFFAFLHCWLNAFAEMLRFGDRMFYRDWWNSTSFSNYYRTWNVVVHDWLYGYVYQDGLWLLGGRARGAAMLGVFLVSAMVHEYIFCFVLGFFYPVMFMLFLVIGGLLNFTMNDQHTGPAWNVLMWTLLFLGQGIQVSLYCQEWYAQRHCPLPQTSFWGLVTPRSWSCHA

| SMILES | IC50 [nM] |
| --- | --- |
| CCCCCCCCCCCCCSc1n[nH]c(NC(=O)Nc2c(C(C)C)cccc2C(C)C)n1 | 390 |
| CCCCCCCCCCCCn1cnnc1NC(=O)Nc1c(C(C)C)cccc1C(C)C | 1500 |

— ChEMBL document CHEMBL1129379, “Heterocyclic ureas: inhibitors of acyl-CoA:cholesterol O-acyltransferase as hypocholesterolemic agents” (J Med Chem, 1996)
